Assay results published in patent US4783441A, “Aqueous protein solutions stable to denaturation” (Hoechst Aktiengesellschaft, priority 1979, dated 1988).

Legend:
Type in all cases: physicochemical
[1] = Shaking test of albumin solutions at 37° C. (turbidity from denatured protein), Example 1b; conditions: 0.1% solution in 0.01M phosphate buffer pH 7, shaken at 37° C.
Description: The two former samples became strongly turbid after 7 and 30 days, respectively, resulting from denatured protein.

[2] = Shaking test of human fibroblast interferon solution, biological activity, Example 14
Method: In the five former samples a loss of more than 97% of the biological activity was determined after 2 days.

[3] = Adsorption of human fibroblast interferon on polystyrene beads, biological activity in filtrate, Example 15
Method: 10 ml of an aqueous suspension of polystyrene beads (Dow Latex®) having an average diameter of 0.481 μm were divided in two aliquots, one of which remained untreated, while the other was shaken for two days at room temperature with 50 mg of block polymer consisting of a linear 1.2-polypropylene glycol chain with an average molecular weight of 1750 (Dalton), to which on each side 10% of polyethylene glycol had been attached by polymerisation. The excess block polymer was then removed by dialysis against an aqueous solution containing 150 ppm of the same polymeric, surface-active substance.
Two samples of 3 ml each of a solution of 10 000 units of human fibroblast interferon in a phosphate buffer, pH 7, were prepared and each soluton was shaken at 5° C. for 20 hours with 500 μl each of the untreated polystyrene suspension or the polystyrene suspension treated as described above, the latter still containing 150 ppm of the block polymer. […] The biological activity of the interferon in the filtrate was determined. In the solutions which were in contact with the untreated polystyrene beads, less than 1% of the calculated activity was determined. In the solutions which were in contact with the polystyrene beads treated as described above, more than 95% of the activity which was determined at the beginning of the test were retained.

Row | Substance | appearance of sample containing stabilizer ([1]; with 10 ppm block polymer (polypropylene glycol MW 1,750, 5% polyethylene glycol on each side)) | time after which sample became strongly turbid (denatured protein) ([1]; without stabilizer) [days] | loss of biological activity ([2]; 5000 units in phosphate buffer pH 7, shaken at 37° C., after 2 days, without stabilizer) | biological activity in samples containing stabilizer ([2]; shaken at 37° C., with 10 ppm block polymer (1.2-PPG MW 1750, 5% PEG each side)) | activity in samples containing stabilizer ([2]; shaken at room temperature, with 10 ppm block polymer stabilizer) | biological activity in filtrate, of the calculated activity ([3]; 10 000 units in phosphate buffer pH 7, shaken at 5° C. for 20 hours with untreated polystyrene beads) | biological activity retained in filtrate, of activity at beginning of test ([3]; shaken at 5° C. for 20 hours with polystyrene beads treated with block polymer (1.2-PPG MW 1750, 10% PEG each side), 150 ppm present)
1 | human albumin: human albumin, 0.1% solution | still limpid after several month | 30 | – | – | – | – | –
2 | human fibroblast interferon: human fibroblast interferon | – | – | more than 97% | unchanged, even after several weeks | remained unchanged after several weeks | less than 1% | more than 95%
